Results from US8562947B2, “Oxidized avidin with high residency time in the treated tissues” (Sigma-Tau Industrie Farmaceutiche Riunite S.p.A., priority 2007, dated 2013).

Conditions: mouse, in vivo

## WTavidin: wild type avidin, glycoprotein of about 68 kDa present in egg white, high affinity for biotin [reference compound]
  residence in the brain: less than 2.08±1.03 % ID/100 mg of tissue
